Reference: ChEMBL document CHEMBL2434913, “Exploring the molecular determinants of substrate-selective inhibition of cyclooxygenase-2 by lumiracoxib” (Bioorg Med Chem Lett, 2013)

Tests used:
[1] = biological target: T1, Prostaglandin G/H synthase 2 (Mus musculus) (UniProt Q05769); experiment: Inhibition of purified mouse COX-2 assessed as inhibition of PGE2/PGD2 formation preincubated at 10 uM for 3 mins before arachidonic acid substrate addition measured after 30 seconds by LC-MS-MS method
T1 sequence (whole entry): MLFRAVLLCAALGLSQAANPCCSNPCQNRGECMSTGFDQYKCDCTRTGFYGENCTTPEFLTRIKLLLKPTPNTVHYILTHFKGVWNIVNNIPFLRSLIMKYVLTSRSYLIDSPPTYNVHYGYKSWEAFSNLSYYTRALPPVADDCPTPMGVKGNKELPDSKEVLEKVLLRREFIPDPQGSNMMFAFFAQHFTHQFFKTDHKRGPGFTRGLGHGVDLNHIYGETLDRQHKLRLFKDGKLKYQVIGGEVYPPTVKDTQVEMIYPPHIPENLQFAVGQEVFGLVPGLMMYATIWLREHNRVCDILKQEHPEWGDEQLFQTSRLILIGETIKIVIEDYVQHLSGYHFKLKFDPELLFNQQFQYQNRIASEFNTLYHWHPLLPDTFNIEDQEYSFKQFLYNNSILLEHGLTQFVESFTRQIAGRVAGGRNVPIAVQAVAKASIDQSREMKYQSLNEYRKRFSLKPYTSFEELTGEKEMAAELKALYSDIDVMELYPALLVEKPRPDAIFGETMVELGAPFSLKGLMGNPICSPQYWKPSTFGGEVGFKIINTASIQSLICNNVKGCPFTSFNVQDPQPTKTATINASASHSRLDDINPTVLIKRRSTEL
Summary of the method: (§1)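 Purified murine COX-2 (50 nM) preincubated 3 min with test agent at 10 µM in DMSO, alongside a solvent control. Then 2-AG or AA added at 5 µM, 37 °C, for 30 s. Read-out is percent inhibition of substrate oxygenation versus control. Mean ± SD, n = 6.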

[2] = biological target: T1, Prostaglandin G/H synthase 2 (Mus musculus); experiment: Inhibition of purified mouse COX-2 assessed as inhibition of PGE2-G/PGD2-G formation preincubated at 10 uM for 3 mins before 2-AG substrate addition measured after 30 seconds by LC-MS-MS method; summary of the method: as §1

inhibition [1] [%]	inhibition [2] [%]	SMILES
15	–	O=C(O)Cc1ccccc1Nc1c(F)cccc1Cl
10	–	O=C(O)Cc1ccccc1Nc1c(F)cccc1F

Second part, the compound before the results:

SMILES	inhibition [1] [%]	inhibition [2] [%]
Cc1ccc(Nc2c(F)cccc2Cl)c(CC(=O)O)c1	25	–
O=C(O)Cc1ccccc1Nc1ccccc1Cl	0	–
O=C(O)Cc1ccccc1Nc1ccccc1	15	8
